From patent US10071964B2, “Disubstituted piperidines as butyrylcholinesterase inhibitors” (priority 2015, dated 2018)

Sequences of proteins named here, by UniProt entry; tags and fusion partners are left off. Residues count along the entry.
UniProt P06276, 29-602: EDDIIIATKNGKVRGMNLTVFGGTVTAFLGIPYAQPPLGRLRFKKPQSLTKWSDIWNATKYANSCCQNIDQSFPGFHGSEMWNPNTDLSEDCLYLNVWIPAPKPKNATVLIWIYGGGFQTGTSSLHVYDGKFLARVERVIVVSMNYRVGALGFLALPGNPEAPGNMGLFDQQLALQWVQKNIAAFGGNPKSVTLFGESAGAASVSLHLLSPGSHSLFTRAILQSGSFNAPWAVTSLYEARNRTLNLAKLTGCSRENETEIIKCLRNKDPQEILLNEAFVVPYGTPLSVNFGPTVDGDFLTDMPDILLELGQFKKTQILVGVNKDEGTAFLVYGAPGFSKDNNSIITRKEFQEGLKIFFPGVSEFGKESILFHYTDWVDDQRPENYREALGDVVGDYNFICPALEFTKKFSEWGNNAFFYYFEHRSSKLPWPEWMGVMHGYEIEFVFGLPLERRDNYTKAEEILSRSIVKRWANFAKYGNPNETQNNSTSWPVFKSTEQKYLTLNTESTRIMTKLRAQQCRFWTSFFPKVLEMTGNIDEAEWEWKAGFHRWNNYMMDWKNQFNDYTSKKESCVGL

Target: human recombinant butyrylcholinesterase (huBChE) (Homo sapiens, UniProt P06276)
Test: biochemical
Conditions: not given

`CN(C)CCN(CC1CCCN(C2Cc3ccccc3C2)C1)C(=O)c1ccc2cccnc2c1O` (centres unmarked) gave an IC50 of 0.0132 ± 0.00061 µM.

Same assay, conditions: Table 2, formula (II); substrate BTCI 500 μM, 300 s preincubation; read-out: IC50 ± STD (μM) huBChE

First: COCCN(CC1CCCN(C2Cc3ccccc3C2)C1)S(=O)(=O)c1cccc(N)c1 (centres unmarked)
Second: COCCN(CC1CCCN(C2Cc3ccccc3C2)C1)S(=O)(=O)c1ccc2ccccc2c1 (centres unmarked)
The IC50 of the first is 3.7-fold higher: 0.197 ± 0.008 µM for the first, 0.053 ± 0.004 µM for the second. The second is the more potent here.

Compared with `O=S(=O)(NCC1CCCN(Cc2ccccc2)C1)c1ccc2ccccc2c1` (centres unmarked), `O=S(=O)(NCC1CCN(Cc2ccccc2)CC1)c1ccc2ccccc2c1` is 3.4-fold higher in IC50: 0.0569 ± 0.0098 µM for the first, 0.195 ± 0.017 µM for the second. The first is the more potent here.

`COCCCN(CC1CCCN(Cc2ccccc2)C1)S(=O)(=O)c1ccc2ccccc2c1` (centres unmarked) and `COCCCN(CC1CCN(Cc2ccccc2)CC1)S(=O)(=O)c1ccc2ccccc2c1` are within 1.5-fold of each other in IC50: 0.0144 ± 0.0008 µM for the first, 0.0193 ± 0.0037 µM for the second.

`COCCN(CC1CCN(C2Cc3ccccc3C2)CC1)S(=O)(=O)c1ccc2ccccc2c1` and `COCCCN(CC1CCN(C2Cc3ccccc3C2)CC1)S(=O)(=O)c1ccc2ccccc2c1` are within 1.5-fold of each other in IC50: 0.0525 ± 0.002 µM for the first, 0.0712 ± 0.0019 µM for the second.

Going from `COCCN(CC1CCN(Cc2ccccc2)CC1)S(=O)(=O)c1ccc2ccccc2c1` to `CN(CC1CCCN(Cc2ccccc2)C1)S(=O)(=O)c1ccc2ccccc2c1` (centres unmarked), the IC50 falls from 0.0394 ± 0.0028 µM to 0.025 ± 0.0038 µM (1.6-fold).
